According to publication PMC10624687 (Nature Communications, 2023):

Molecular target: HsClpP (mitochondrial caseinolytic protease P) (Homo sapiens, UniProt Q16740)
Experiment: biochemical
Set-up: gene CLPP

Structure (SMILES): C[C@@H]1CN(Cc2ccc(F)cc2)CCN1C(=O)COc1ccc(Cl)cc1NC(N)=O [BX471]
- EC50: 6.07 µM
